The assay concerns ovariectomized (OVX) rats. As to the kind of experiment: Biomechanical measures of strength in ovariectomized rats. In kind it is in vivo, rat. The conditions noted are these: 40 μg/kg/day s.c. once daily, 90 days.

Marks after values point to notes of the source that are not given here.

Consider hPTH-(1-34), for which the “Mid-Femur Young's Modulus (E)” value was 10.0 ± 0.2^c Gpa.

The record behind these values is patent US7384912B2, “Treatment of bone disorders with skeletal anabolic drugs” (Osteotrophin, LLC, priority 2002, dated 2008).
